Reference: paper PMC7411652 (Sensors (Basel, Switzerland), 2020)

Biological target: T1, CYP1B1 enzyme (Homo sapiens, UniProt Q16678)
T1 construct: expressed in transfected cells; host or cells: Saccharomyces cerevisiae W303-1A derived strains yRD+ (+CPR) and yRD-::Bax (-CPR)
T1 sequence (Q16678 1-543): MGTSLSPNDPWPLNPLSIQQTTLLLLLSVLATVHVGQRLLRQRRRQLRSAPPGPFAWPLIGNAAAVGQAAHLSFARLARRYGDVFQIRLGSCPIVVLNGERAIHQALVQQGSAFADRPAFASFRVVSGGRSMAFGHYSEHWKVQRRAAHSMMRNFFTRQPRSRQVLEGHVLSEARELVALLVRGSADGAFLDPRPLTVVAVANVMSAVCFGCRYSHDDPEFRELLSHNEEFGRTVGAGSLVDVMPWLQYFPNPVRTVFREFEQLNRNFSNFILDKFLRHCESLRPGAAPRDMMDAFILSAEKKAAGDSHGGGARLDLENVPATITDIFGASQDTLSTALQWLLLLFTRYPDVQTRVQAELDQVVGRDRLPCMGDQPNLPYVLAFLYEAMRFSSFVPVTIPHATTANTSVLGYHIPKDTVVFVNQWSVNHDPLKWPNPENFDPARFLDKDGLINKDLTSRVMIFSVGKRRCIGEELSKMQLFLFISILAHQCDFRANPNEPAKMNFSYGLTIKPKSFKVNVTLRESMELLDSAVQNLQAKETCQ
Assay: Live-cell IC50 determination, CYP1B1 expressed in yeast cells, 7-ethoxyresorufin (7-ER) substrate
Assay type: cell-based
Details: 1 × 10^7 cells, 10 min incubation
Procedure: The IC50 values were calculated using GraphPad Prism software.

O=c1cc(-c2ccccc2)oc2c1ccc1ccccc12 [ANF, Alpha-naphthoflavone]
IC50 (live yeast strain yRD+ (+CPR), read-out: IC50 for inhibition of CYP1B1 in yRD+ cells): 7.5 nM
IC50 (live yeast strain yRD−:: Bax (–CPR), read-out: IC50 for inhibition of CYP1B1 in yRD- cells): 7.9 nM

Where two headings read alike, the source gives them in different places.
